The results in this text go back to patent US12521444B2, “Anti-HER2 antibody-drug conjugates and uses thereof” (Fortvita Biologics Limited, priority 2021, dated 2026).

For orientation: pIC50 means −log10 of the IC50, conventionally taken in molar units. A low value points to a high IC50. A word on the pEC50: it is −log10 of the EC50, conventionally taken in molar units.

pEC50, pIC50: −log10 of the molar value.

One assay deals with MDA-MB-468. The assay can be described thus: In vitro cytotoxicity assay (CCK-8) in MDA-MB-468. Type of assay: cell-based. To be noted: ADCs, Her2 negative cell line, 120 hours. Here is the method: (§1) Dispensed 175 μL cell suspension in 96-well plate at 1500 cells per well and incubate for 24 hours in a humidified incubator (37° C., 5% CO2). […] Added 25 μL various concentrations of compound as a […] solution into the cell culture medium (Fetal bovine serum, Invitrogen) in the plate and incubated for 120 hours in the incubator. Thawed CCK-8 on the bench top or in a 37° C. water bath, added 10 μL of CCK-8 to each well of the incubated plate (be careful not introducing air bubbles into the wells since they would interfere with the O. D. reading) and then further incubated for 1-4 hours in the incubator. Measured the absorbance at 450 nm using a SpectraMax i3× Microplate Reader and calculated the cell inhibition rate. The IC50 curves were generated along with the IC50 values by using GraphPad Prism software.

In a further assay the test system is SK-BR-3. Description: In vitro cytotoxicity assay (CCK-8) in SK-BR-3. In kind it is cell-based, human. As to conditions: ADCs, 120 hours. Here is the method:
as §1

A further assay concerns JIMT-1. Type of assay: cell-based, human. As to conditions: ADCs, moderate Her2 expression, trastuzumab-resistant, 120 hours. Here is the method: as §1
The subject of another assay is HER2. Description: EC50 (nM). From the text:
Table printed on a drawing sheet, FIG. 10
Head of the field: EC50 (nM)
First copying reader's note: EC50 of binding to SK-BR-3 cells (MFI), as printed over the plot above the table.
Where the first naming reader finds the target: patent_title: Anti-HER2 antibody-drug conjugates and uses thereof

“DS-8201a: the ADC trastuzumab deruxtecan (Enhertu), included for comparison”: the pIC50 in the assay with MDA-MB-468 was less than 6.00; in the assay on SK-BR-3, 10.05; in the assay with JIMT-1, 5.19. On to “Trastuzumab: humanized anti-HER2 monoclonal antibody; heavy chain SEQ ID NO: 1, light chain SEQ ID NO: 2 [listing 1 of 2 here]”, for which, in the assay with HER2, the pEC50 was 8.51. In the assay with SK-BR-3, “Trastuzumab: humanized anti-HER2 monoclonal antibody; heavy chain SEQ ID NO: 1, light chain SEQ ID NO: 2 [listing 2 of 2 here]” showed a pIC50 of 9.25.
